Laboratory results taken from paper PMC12154214, “Bioactive Peptides from Sodium Caseinate Hydrolysate with High Oral Absorption Regulate Blood Glucose in Type 2 Diabetic Mice via Inhibition of DPP-IV and Stimulation of GLP-1” (Foods, 2025).

Protein sequences, listed by entry. Tags and fused reporters are not part of them. Residues count along the entry.
UniProt P28843, 37-760 limits assumed: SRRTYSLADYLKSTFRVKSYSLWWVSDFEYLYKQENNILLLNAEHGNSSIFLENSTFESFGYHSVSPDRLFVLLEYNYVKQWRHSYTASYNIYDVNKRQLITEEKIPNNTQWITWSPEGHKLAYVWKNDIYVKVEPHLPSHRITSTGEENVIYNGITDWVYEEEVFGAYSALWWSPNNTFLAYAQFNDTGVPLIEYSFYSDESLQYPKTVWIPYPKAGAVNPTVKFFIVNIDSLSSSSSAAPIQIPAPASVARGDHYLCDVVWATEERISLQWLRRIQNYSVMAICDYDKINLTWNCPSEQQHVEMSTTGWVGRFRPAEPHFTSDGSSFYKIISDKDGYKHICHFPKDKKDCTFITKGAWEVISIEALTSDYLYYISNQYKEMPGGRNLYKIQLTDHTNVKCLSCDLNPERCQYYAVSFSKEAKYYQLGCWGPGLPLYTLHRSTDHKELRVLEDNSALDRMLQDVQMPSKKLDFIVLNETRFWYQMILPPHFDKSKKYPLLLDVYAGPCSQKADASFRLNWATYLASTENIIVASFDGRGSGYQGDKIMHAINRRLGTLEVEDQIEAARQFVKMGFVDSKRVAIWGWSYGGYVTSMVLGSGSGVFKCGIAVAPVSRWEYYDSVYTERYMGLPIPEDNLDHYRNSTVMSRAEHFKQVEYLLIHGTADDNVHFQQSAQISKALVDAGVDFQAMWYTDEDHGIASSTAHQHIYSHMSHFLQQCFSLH

What was measured:
[1] = tested on: db/db mice; assay: Oral glucose tolerance test (OGTT) in db/db mice; format: in vivo; details: after 3 weeks of administration, 1CBR 500 mg/kg/day, sitagliptin 20.5 mg/kg/day
Experimental: In this study, db/db mice (BKS.Cg-Dock7m+/+Leprdb/JNarl from National Laboratory Animal Center, Taipei, Taiwan) 5 weeks of age and weighing 22–25 g were analyzed. The mice were given the 5001-Laboratory Rodent Diet (LabDiet®, St. Louis, MO, USA), which comprised 57% carbohydrate, 13% fat, and 30% protein by total kcal. The Institutional Animal Care and Use Committee (IACUC) of China Medical University approved all animal care and experimental protocols. Between the ages of 6 and 8 weeks, the blood glucose concentrations in the mice were monitored weekly. […] The mice were randomly allocated to three groups, each consisting of 13 individuals. The experimental period lasted for 3 weeks. Group C: control mice; Group P: mice administered 1CBR (500 mg/kg/day); Group S: mice administered sitagliptin (20.5 mg/kg/day; positive control). Mice were housed in groups of 3–4 per cage. The sample size was determined based on previous studies and ethical considerations (3Rs principle) to achieve adequate statistical power without excessive animal use. […] This dose was also within the effective range reported for other food-derived bioactive protein hydrolysates in rodent models. An OGTT was conducted on mice fasted overnight from each group at week 0 and week 3. […]

[2] = target: T1, plasma DPP-IV (Mus musculus, UniProt P28843); assay: Plasma DPP-IV activity in db/db mice; format: in vivo; details: after 3-week treatment, 1CBR 500 mg/kg/day, sitagliptin 20.5 mg/kg/day, group C 83%
T1 construct: blood samples were obtained from all mice into EDTA-treated chilled tubes and then centrifuged; from tissue; host or cells: plasma of db/db mice

With `N[C@@H](CC(=O)N1CCn2c(nnc2C(F)(F)F)C1)Cc1cc(F)c(F)cc1F` [sitagliptin] the “mean plasma glucose concentration (OGTT)” value [1] was “below 400 mg/dL” and the “plasma DPP-IV activity” value [2] was 26%.
